# CycPeptMPDB entries from one study

Data: CycPeptMPDB; original report Townsend et al. 2020, doi:10.26434/chemrxiv.13335941.v1.

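The data file gives no further conditions (lipid, pH, time, direction or concentration), and values from different papers need not be comparable. The list need not hold all peptides of the study. Entries at the database's floor value (log10 P of -10) are not listed.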

PAMPA measures passive passage through an artificial lipid membrane. Permeability is given as log10 of P in cm/s; higher (less negative) is more permeable.

SMILES | PAMPA (log10 cm/s)
CC(C)C[C@@H]1NC(=O)[C@@H]2CCCN2C(=O)C[C@H](Cc2ccccc2)NC(=O)CN(Cc2ccccc2)C(=O)[C@@H](C)N(C)C(=O)[C@H](Cc2ccccc2)NC1=O | -5.89
C[C@@H]1NC(=O)[C@H](Cc2ccccc2)NC(=O)CN(Cc2ccccc2)C(=O)[C@@H]2CCCN2C(=O)CN(Cc2ccccc2)C(=O)CN(Cc2ccccc2)C1=O | -6.31
CCCN1CC(=O)N[C@H](CC(C)C)C(=O)N(C)[C@@H](CC(C)C)C(=O)N2CCC[C@H]2C(=O)N(C)[C@H](CC(C)C)C(=O)N[C@@H](Cc2ccccc2)C1=O | -4.92
CC(C)C[C@@H]1C(=O)N[C@@H](Cc2ccccc2)C(=O)N2CCC[C@H]2C(=O)N[C@H](C)C(=O)N(Cc2ccccc2)CC(=O)N(Cc2ccccc2)CC(=O)N2CCC[C@H]2C(=O)N1C | -6.12
CC(C)C[C@@H]1C(=O)N(C)[C@H](CC(C)C)C(=O)N2CCC[C@H]2C(=O)N(Cc2ccccc2)CC(=O)N[C@@H](Cc2ccccc2)C(=O)N2CCC[C@@H]2C(=O)N[C@@H](Cc2ccccc2)CC(=O)N1C | -5.51
CCCN1CC(=O)N(C)[C@H](CC(C)C)C(=O)N[C@H](CC(C)C)C(=O)N2CCC[C@H]2C(=O)N(Cc2ccccc2)CC(=O)N[C@@H](Cc2ccccc2)C1=O | -5.89
CC(C)C[C@H]1NC(=O)[C@H]2CCCN2C(=O)C[C@H](Cc2ccccc2)NC(=O)CN(Cc2ccccc2)C(=O)[C@H](C)N(C)C(=O)[C@H]2CCCN2C(=O)[C@H](Cc2ccccc2)NC1=O | -6.24
CC(C)C[C@@H]1NC(=O)[C@@H]2CCCN2C(=O)CN(Cc2ccccc2)C(=O)CN(Cc2ccccc2)C(=O)C[C@H](Cc2ccccc2)NC(=O)[C@H]2CCCN2C(=O)[C@H](Cc2ccccc2)NC1=O | -6.31
C[C@H]1NC(=O)[C@H](Cc2ccccc2)NC(=O)CN(Cc2ccccc2)C(=O)[C@H]2CCCN2C(=O)CN(Cc2ccccc2)C(=O)CN(Cc2ccccc2)C1=O | -6.17
O=C1CN(Cc2ccccc2)C(=O)C[C@H](Cc2ccccc2)NC(=O)[C@H](Cc2ccccc2)NC(=O)CN(Cc2ccccc2)C(=O)[C@@H]2CCCN2C(=O)C[C@H](Cc2ccccc2)N1 | -5.81
CCCN1CC(=O)N(Cc2ccccc2)CC(=O)N(Cc2ccccc2)CC(=O)N2CCC[C@H]2C(=O)N[C@H](CC(C)C)C(=O)N[C@@H](Cc2ccccc2)C(=O)N2CCC[C@H]2C1=O | -6.15
CCCN1CC(=O)N(C)[C@H](CC(C)C)C(=O)N(Cc2ccccc2)CC(=O)N2CCC[C@@H]2C(=O)N(Cc2ccccc2)CC(=O)N[C@@H](Cc2ccccc2)C1=O | -5.76
CC(C)C[C@H]1NC(=O)C[C@H](Cc2ccccc2)NC(=O)[C@H](Cc2ccccc2)NC(=O)[C@H](CC(C)C)N(C)C(=O)[C@@H]2CCCN2C(=O)CN(Cc2ccccc2)C1=O | -5.57
CCCN1CC(=O)N(C)[C@@H](CC(C)C)C(=O)N(Cc2ccccc2)CC(=O)N2CCC[C@@H]2C(=O)N(Cc2ccccc2)CC(=O)N[C@@H](Cc2ccccc2)C(=O)N2CCC[C@@H]2C1=O | -5.99
CC(C)C[C@@H]1C(=O)N2CCC[C@H]2C(=O)N(C)[C@H](CC(C)C)C(=O)N[C@@H](Cc2ccccc2)C(=O)N(C)[C@H](C)C(=O)N(Cc2ccccc2)CC(=O)N1C | -4.97
CC(C)C[C@@H]1C(=O)N2CCC[C@H]2C(=O)N(C)[C@H](CC(C)C)C(=O)N[C@@H](Cc2ccccc2)C(=O)N2CCC[C@H]2C(=O)N[C@@H](Cc2ccccc2)CC(=O)N(Cc2ccccc2)CC(=O)N1C | -5.76
CC(C)C[C@H]1NC(=O)C[C@H](Cc2ccccc2)NC(=O)[C@H](Cc2ccccc2)NC(=O)CN(Cc2ccccc2)C(=O)[C@H]2CCCN2C(=O)[C@H](CC(C)C)N(C)C1=O | -5.13
CC(C)C[C@@H]1NC(=O)[C@@H]2CCCN2C(=O)C[C@H](Cc2ccccc2)NC(=O)[C@H](CC(C)C)N(C)C(=O)C[C@H](Cc2ccccc2)NC(=O)[C@H](Cc2ccccc2)NC1=O | -5.71
CC(C)C[C@H]1C(=O)N(Cc2ccccc2)CC(=O)N2CCC[C@H]2C(=O)N(Cc2ccccc2)CC(=O)N[C@@H](Cc2ccccc2)C(=O)N[C@H](C)C(=O)N1C | -5.34
CC(C)C[C@H]1C(=O)N2CCC[C@H]2C(=O)N(Cc2ccccc2)CC(=O)N[C@@H](Cc2ccccc2)C(=O)N2CCC[C@H]2C(=O)N(C)[C@H](C)C(=O)N(Cc2ccccc2)CC(=O)N1C | -5.76